# Assay results from PubChem BioAssay AID1532 (PCMD, 2009).
# Only a part is listed here, and it is no random draw. Some tests of the compounds listed are not included; inactive here does not mean inactive elsewhere. The source made the active and inactive calls. Cut-off read from the data, not from the text of the source: active = inhibition above about 30% (passing the limit was not always enough); inconclusive = no clear call, values can overlap the other calls.
# Tested on: RmlC (dTDP-4-dehydrorhamnose 3,5-epimerase) and RmlD (dTDP-4-dehydrorhamnose reductase), coupled enzyme assay
# Experiment: RmlC and RmlD coupled enzyme inhibitors, primary screen, biochemical, 384-well, compound mixtures, retest (AID 1532)
# Settings: 384-well mixture HTS, at 5.5 µM, hits give high values
row,Compound,inhibition
1,CC(C)N1C(=O)CC2(CCN(CCOC(=O)C(O)(c3ccccc3)c3ccccc3)CC2)C1=O,inactive: -7.81%
2,CN(C)c1cccc(C(=O)NCC2(N(C)C)CCCCC2)c1,inactive: -7.81%
3,O=C(OC1CN2CCC1CC2)C(CO)(c1ccccc1)c1ccccc1 (stereo not drawn),inactive: 10.7%
